For data set [1], the system named is human prostate cancer cells (PC3). Briefly: MTT dye reduction viability test, PC3. It is filed as cell-based. On the procedure: (§1) The cytotoxic effect of 6-hydroxy-flavanone and 7-hydroxy-flavone and their conjugates was evaluated by MTT dye reduction assay, measuring mitochondrial respiratory functions. We have chosen two types of cell culture lines: human prostate cancer cells (PC3) and normal human immortal keratinocyte cells (HaCaT) (Table 1).
(§2) Human prostate cancer cells (PC3) and human immortal keratinocyte cell line from adult human skin (HaCaT) were obtained from American Type Culture Collection (Teddington, UK) and cultured according to its instructions RPMI 1640 (L0490) medium or DMEM (L0102) medium, respectively, in a 95% air and 5% CO2 humidified incubator at 37 °C. Both media (Biowest) were supplemented with 10% fetal bovine serum (FBS), 100 U/mL penicillin and 100 μg/mL streptomycin. 10 mM stock solutions of tested compounds in DMSO were prepared.
(§3) To assess the cells growth inhibition, the MTT dye reduction test was preformed based on the method described by Präbst et al.. Both PC3 and HaCaT cells (1 × 10^3/well) were seeded into 96-well plates and incubated for 24 h to attach to the bottom of the well in appropriate medium (200 μL) and treated with tested compounds (0–100 μM). The medium with compounds was removed after 72 h and MTT (0.5 mg/mL) in fresh growth medium without serum was added to each well. The plates were incubated in dark for 4 h at 37 °C. Then, the solution in each well was removed and refilled with 100 μL DMSO: isopropanol (1:1) to dissolve formazon crystals. The optical density was measured with an UVM 340 (ASYS Hitech GmbH, Austria) microplate reader at 570 nm. Replicates of three wells for each dosage, including vehicle control, were analyzed for each experiment. The experiments were conducted in triplicate. The results are expressed as IC50 values. The value of IC50 was estimated using CompuSyn version 1.0.

Data set [2] has as its system human immortal keratinocyte cells (HaCaT). Put plainly: MTT dye reduction viability test, HaCaT. It is filed as cell-based. On the procedure: as §1, §2, §3
Background: Tetrazolium assays rely on reduction of a dye to a coloured formazan, in cell work by metabolically active cells.

From publication PMC8777613, “Effect of Hydroxyl Groups Esterification with Fatty Acids on the Cytotoxicity and Antioxidant Activity of Flavones” (Molecules, 2022) come the findings set out here.

Regarding “7-Hydroxy-Flavanone [Compound 7, reference compound]”, the Cells viability came out at 79.7% in data set [1] (10 µM); 83.9% in data set [1] (20 µM); 79.3% in data set [1] (40 µM); 68.9% in data set [1] (60 µM); 76.6% in data set [1] (80 µM); 70.9% in data set [1] (100 µM). Also, the Cells viability in data set [2] (10 µM) is recorded as 97.17%; in data set [2] (20 µM), 102%; in data set [2] (40 µM), 96.70%; in data set [2] (60 µM), 84.03%; in data set [2] (80 µM), 93.41%; in data set [2] (100 µM), 86.46%.
